# Literature values in patent US9713590B2, “Method for treatment of pain and inflammation” (CADILA HEALTHCARE LIMITED, priority 2011, dated 2017).
# Details: after oral administration
smiles,measurement,value
O=C(O)Cc1ccccc1Nc1c(Cl)cccc1Cl [Diclofenac],hepatic first-pass metabolism,50%
